Like-named read-outs stand apart in the source and are kept apart here.
System: liver mitochondria
[1] = FIG. 5, cirrhotic HCV patient without liver cancer
[2] = FIG. 6, cirrhotic HCV patient with active HCC

- PDR peak [1]: ~30 %/h
- time to PDR peak [1]: ≤ 30 min
- PDR peak [2]: low
- time to PDR peak [2]: > 30 min
- PDR curves (FIG. 7, NASH patient with HCC, three consecutive OBTs before and after TACE with relapse): low
- PDR peak (FIG. 8, cryptogenic cirrhosis with HCC, third curve after successful TACE): high
- PDR curves (FIG. 8, cryptogenic cirrhosis with HCC, two curves before TACE): low
- PDR curve (FIG. 9, HCV cirrhosis with HCC, before TACE): low
- PDR peak (FIG. 9, HCV cirrhosis with HCC, second curve after successful TACE): high
- OBT peak (Subject 01, active HCC, first visit before TACE, 100 mg oral): 16.30 %/h
- OBT peak (Subject 01, second visit 3 months after TACE, HCC inactive): 31.78 %/h
- OBT peak (Subject 02, first visit before TACE): 25.36 %/h
- OBT peak (Subject 02, second visit 3 months after TACE, HCC remained active): 22.19 %/h
- OBT peak (Subject 05, NASH patient, first visit before TACE): 30.35 %/h
- OBT peak (Subject 05, NASH patient, second visit 5 months after TACE, inactive HCC): 37.63 %/h
SMILES: CCCCCCC[13C](=O)[O-].[Na+] [13C-octanoate, 1-^13C-Octanoate Sodium]

From patent US10307140B2, “Device for detection of hepatocellar carcinoma (HCC) using an octanoate breath test” (EXALENZ BIOSCIENCE LTD., priority 2011, dated 2019)
